Measured values reported in patent US11814651B2, “Cell and utilization thereof” (FUJITA ACADEMY, priority 2017, dated 2023).

Test system: lung cells into which EML4-ALK fusion gene was introduced, transplanted subcutaneously
Experiment: Crizotinib treatment experiment using cancer-bearing mouse model
Assay type: in vivo
Settings: athymic mouse, 150 mg/kg orally for 14 consecutive days, vs methylcellulose control, n=3, P<0.05 Student's t-test

Compound: C[C@@H](Oc1cc(-c2cnn(C3CCNCC3)c2)cnc1N)c1c(Cl)ccc(F)c1Cl [crizotinib]
- tumor volume (tumor growth): tumor growth was significantly suppressed
